This experiment is described as follows: Selectivity ratio of IC50 for PKA to IC50 for ROCK2.

Take `COc1cccc(CNC(=O)c2[nH]c3cc(-c4cn[nH]c4)ccc3c2CN2CCOCC2)c1`: the Ratio IC50 was 6000.

The values are drawn from ChEMBL document CHEMBL1921670, “Discovery and optimization of indole and 7-azaindoles as Rho kinase (ROCK) inhibitors (part-II)” (Bioorg Med Chem Lett, 2011).
